Legend:
[1] = biological target: human BACE-1 (Homo sapiens (Human), UniProt P56817); experiment: Test 1: Inhibition of human BACE-1
[2] = biological target: human BACE-2 (Homo sapiens (Human), UniProt Q9Y5Z0); experiment: Test 2: Inhibition of human BACE-2; assay type: biochemical; conditions: mean IC50, recombinant BACE-2, acetate buffer pH 4.5, fluorescence-quenched peptide substrate
Excerpt: Test 2: Inhibition of Human BACE-2

Chains of the proteins cited; added tags and fusions are not shown. Residues count along the entry.
UniProt P56817, 46-457: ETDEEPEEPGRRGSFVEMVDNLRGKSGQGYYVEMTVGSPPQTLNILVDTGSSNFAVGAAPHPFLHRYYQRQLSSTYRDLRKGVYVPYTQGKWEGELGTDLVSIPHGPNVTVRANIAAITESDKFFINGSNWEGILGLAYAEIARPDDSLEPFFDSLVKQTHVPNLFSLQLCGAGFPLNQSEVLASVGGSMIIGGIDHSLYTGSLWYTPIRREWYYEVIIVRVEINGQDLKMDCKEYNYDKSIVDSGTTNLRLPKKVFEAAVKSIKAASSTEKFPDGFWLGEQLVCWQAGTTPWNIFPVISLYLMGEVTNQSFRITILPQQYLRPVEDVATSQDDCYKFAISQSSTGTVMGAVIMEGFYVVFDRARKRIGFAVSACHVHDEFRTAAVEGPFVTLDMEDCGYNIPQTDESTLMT
UniProt Q9Y5Z0, 63-473: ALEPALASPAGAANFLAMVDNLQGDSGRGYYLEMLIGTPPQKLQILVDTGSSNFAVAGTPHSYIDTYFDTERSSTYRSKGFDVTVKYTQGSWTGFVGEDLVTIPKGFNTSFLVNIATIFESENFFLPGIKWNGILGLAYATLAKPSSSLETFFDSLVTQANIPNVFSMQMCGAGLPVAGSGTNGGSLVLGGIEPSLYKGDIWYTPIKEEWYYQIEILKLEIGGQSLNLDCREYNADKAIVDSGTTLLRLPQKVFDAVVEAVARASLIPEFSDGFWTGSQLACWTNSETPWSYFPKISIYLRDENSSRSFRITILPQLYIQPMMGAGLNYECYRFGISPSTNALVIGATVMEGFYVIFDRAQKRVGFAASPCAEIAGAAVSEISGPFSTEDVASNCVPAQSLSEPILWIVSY

Row | Compound | IC50 [1] | IC50 [2]
1 | [2H]c1nc(C(=O)Nc2cc(C3(CF)COCC(N)=N3)ccn2)c(C([2H])([2H])[2H])c([2H])c1Cl (centres unmarked) [Example 13, 5-{2-[(5-Chloro-4,6-dideutero-3-trideuteromethyl-pyridine-2-carbonyl)-amino]-pyridin-4-yl}-5-fluoromethyl-5,6-dihydro-2H-[1,4]oxazin-3-yl-ammonium acetate] | 3.7 µM | 
2 | C[C@@]1(c2cccc(NC(=O)c3ccc(C#N)cn3)n2)CO[C@@](C)(C(F)(F)F)C(N)=N1 [Example 10, 5-Cyano-pyridine-2-carboxylic acid [6-((3R,6R)-5-amino-3,6-dimethyl-6-trifluoromethyl-3,6-dihydro-2H-[1,4]oxazin-3-yl)-pyridin-2-yl]-amide] |  | 100 nM

Source: patent US8637508B2, “Heterocyclic derivatives and their use in the treatment of neurological disorders” (Novartis AG, priority 2011, dated 2014)
